Laboratory results as given in US8030315B2 (dated 2011).

The chains behind the UniProt entries cited, without tags or fusion partners. Residues count along the entry.
UniProt P14740, 37-767 limits assumed: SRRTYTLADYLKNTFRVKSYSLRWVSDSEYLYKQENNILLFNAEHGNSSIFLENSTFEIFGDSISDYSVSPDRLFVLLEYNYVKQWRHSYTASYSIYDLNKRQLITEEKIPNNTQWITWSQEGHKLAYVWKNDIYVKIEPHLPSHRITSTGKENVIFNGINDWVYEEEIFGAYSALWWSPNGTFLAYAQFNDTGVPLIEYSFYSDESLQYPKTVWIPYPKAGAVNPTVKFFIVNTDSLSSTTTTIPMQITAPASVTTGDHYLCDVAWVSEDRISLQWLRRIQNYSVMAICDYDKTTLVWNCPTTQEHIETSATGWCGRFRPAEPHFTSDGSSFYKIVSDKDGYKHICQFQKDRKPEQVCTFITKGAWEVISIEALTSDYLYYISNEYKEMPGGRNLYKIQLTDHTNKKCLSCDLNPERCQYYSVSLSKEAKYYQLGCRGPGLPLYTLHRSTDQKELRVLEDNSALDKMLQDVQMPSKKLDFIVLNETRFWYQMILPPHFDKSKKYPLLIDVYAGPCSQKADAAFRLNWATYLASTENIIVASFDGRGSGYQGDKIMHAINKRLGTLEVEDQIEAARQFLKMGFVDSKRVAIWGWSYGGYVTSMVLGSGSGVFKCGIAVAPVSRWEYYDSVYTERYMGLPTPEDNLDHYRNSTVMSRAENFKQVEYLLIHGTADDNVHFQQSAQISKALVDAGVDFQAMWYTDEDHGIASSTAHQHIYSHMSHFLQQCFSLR

Target: plasma DPP-IV (Rattus norvegicus, UniProt P14740)
Assay: in vivo
Conditions: read-out: DPP-IV inhibitory activity retained

N[C@@H](CC(=O)N1CCn2c(nnc2C(F)(F)F)C1)Cc1cc(F)c(F)cc1F [MK-0431, reference compound]
inhibition at 10 mg/kg: ~50%
